The source of these data is ChEMBL document CHEMBL5543150, “Design, Synthesis, and Pharmacological Evaluation of Spiro[carbazole-3,3'-pyrrolidine] Derivatives as cGAS Inhibitors for Treatment of Acute Lung Injury” (J Med Chem, 2024).

Sequences of proteins named here, by UniProt entry; tags and fusion partners are left off.
UniProt Q8N884, whole entry: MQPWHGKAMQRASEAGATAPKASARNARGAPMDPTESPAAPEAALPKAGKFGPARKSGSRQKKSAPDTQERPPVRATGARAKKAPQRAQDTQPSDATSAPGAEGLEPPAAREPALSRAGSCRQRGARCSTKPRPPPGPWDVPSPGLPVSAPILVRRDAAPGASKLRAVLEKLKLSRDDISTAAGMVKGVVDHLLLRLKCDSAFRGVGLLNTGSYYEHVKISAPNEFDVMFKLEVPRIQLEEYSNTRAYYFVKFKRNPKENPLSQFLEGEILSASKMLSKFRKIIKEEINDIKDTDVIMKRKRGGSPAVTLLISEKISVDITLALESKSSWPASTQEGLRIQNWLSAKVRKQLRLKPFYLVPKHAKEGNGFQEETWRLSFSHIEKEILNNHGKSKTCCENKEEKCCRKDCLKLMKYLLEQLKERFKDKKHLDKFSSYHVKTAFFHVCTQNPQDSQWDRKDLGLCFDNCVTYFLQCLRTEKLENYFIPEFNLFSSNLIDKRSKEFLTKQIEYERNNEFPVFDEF

Data set [1] addresses T1, Cyclic GMP-AMP synthase (Homo sapiens, UniProt Q8N884).
In data set [2] the target is T1, Cyclic GMP-AMP synthase. The source holds these as a separate data set.
Data set [3] deals with T1, Cyclic GMP-AMP synthase. The source holds these as a separate data set.
The test system of data set [4] is THP1-Dual. The data set can be described thus: Cytotoxicity against human THP1-Dual cells incubated for 24 hrs by CCK-8 method.
The nature of data set [5]: Cytotoxicity against mouse RAW-Lucia ISG cells incubated for 24 hrs by CCK-8 method. For orientation: Formazan colour is commonly taken as a measure of viable cells.
A short description of data set [6]: in vivo. To be noted: rat, po, 3 mg/kg.
The nature of data set [7]: Half life in rat at 1 mg/kg, iv. To be noted: in vivo.
The nature of data set [8]: Volume of distribution at steady state in rat at 1 mg/kg, iv. To be noted: in vivo.
The nature of data set [9]: in vivo. Conditions: rat, iv, 1 mg/kg.
Data set [10] in a line: in vivo. To be noted: rat, iv, 1 mg/kg. This is another data set of the same source.
Data set [11] in a line: Half life in rat at 3 mg/kg, po. To be noted: in vivo.
Data set [12] is described as follows: in vivo. Conditions: rat, po, 3 mg/kg. The source holds these as a separate data set.
The nature of data set [13]: MRT last in rat at 3 mg/kg, po. Conditions: in vivo.
Data set [14] can be described thus: in vivo. To be noted: rat, po, 3 mg/kg. The source holds these as a separate data set.
Data set [15] is described as follows: in vivo. Conditions: rat, po, 3 mg/kg. This is another data set of the same source.
The nature of data set [16]: MRT last in rat at 1 mg/kg, iv. To be noted: in vivo.

As for `Cn1ccc(-c2cc(Cl)c(Cl)c3[nH]c4c(c23)CN(C(=O)CO)CC4)n1`, the Tm was 45.4 °C in data set [1], 46.5 °C in [2] and 47.8 °C in [3].
With `O=C(CO)N1CC[C@@]2(CCc3[nH]c4c(Cl)c(Cl)cc(-c5ccn(C(F)F)n5)c4c3C2)C1`, the cytotoxic concentration (CC50) (in general, the concentration giving 50% cytotoxicity) in [4] was 28.2 µM; in data set [5], 44.7 µM.
The corresponding values for `O=C(CO)N1CC[C@]2(CCc3[nH]c4c(Cl)c(Cl)cc(-c5ccn(C(F)F)n5)c4c3C2)C1` are 14.2 µM and 38 µM.
As for `O=C(CO)N1CCC2(CCc3[nH]c4c(Cl)c(Cl)cc(-c5ccn(C(F)F)n5)c4c3C2)C1` (racemic), the Tmax (commonly the time at which the peak concentration occurs) in data set [6] is 1.17 h. Moreover, the half-life (usually the time in which the quantity being followed falls by half) in data set [7] is 3.41 h; in data set [11] it was 2.46 h. The Vd (as a rule, the apparent volume that relates the amount in the body to the concentration in plasma or blood) in [8] is 1.7 L/kg. Further, the figures for the AUC(0-t) in [9] and in data set [15] were 3020 ng·h/mL and 3140 ng·h/mL, respectively. In addition, the clearance – broadly, the rate of elimination divided by the concentration – in data set [10] was determined as 5.8 mL/min/kg. Moreover, half-maximal cytotoxicity in data set [5] (CC50) was put at 40 µM. In addition, the peak level in data set [12] (Cmax) was 626 ng/mL. In addition, the MRT last (as a rule, the average time that molecules of a dose stay in the body) amounted to 3.59 h in [13] and 4.46 h in [16]. In [14], the bioavailability (commonly dose-corrected exposure relative to a reference, in per cent) turned out to be 35.1%.
